The list shows a part of the results, in another mix than the full data. Activity calls are given as the source filed them.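 The calls were made as follows: active = inhibition of 40% or more at the single tested concentration; inactive = the rest.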
assay: wild-type TIM10 yeast growth inhibition – luminescence, uHTS, counter-screen for tim10-1 yeast inhibitor project, primary screen (AID 463195);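 also: wild-type TIM10 isogenic control strain grown at permissive 25 °C; 0% = DMSO yeast wells and 100% = minimal medium wells without yeast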; conditions: S. cerevisiae TIM10 strain growth, BacTiter-Glo luminescence, 24 h; at 10 µM; stronger effect = higher value

SMILES	inhibition
COc1ccc(OP(C)(=O)Nc2ccccn2)cc1 (stereo unspecified)	inactive: 11.7%

Source: PubChem BioAssay AID463195 (Sanford-Burnham Center for Chemical Genomics, 2010)
